Assay: Cohesive energy (solubility-parameter) components by the PSP/LSER method

σtot (square root of total cohesive energy density, equivalent to δtot): 23.55 MPa^0.5
SMILES: COc1ccccc1OCCNCC(O)COc1cccc2[nH]c3ccccc3c12 (stereo not shown) [Carvedilol, carvedilol]

Reference: publication PMC6359455, “Partial Solvation Parameters of Drugs as a New Thermodynamic Tool for Pharmaceutics” (Pharmaceutics, 2019)
